Experimental findings from patent US6124328A, “Methods and compositions for stimulating neurite growth” (Vertex Pharmaceuticals Incorporated, priority 1997, dated 2000) are described below.

Amino acid sequences for entries named in this document (tags omitted).
UniProt P62942, whole entry: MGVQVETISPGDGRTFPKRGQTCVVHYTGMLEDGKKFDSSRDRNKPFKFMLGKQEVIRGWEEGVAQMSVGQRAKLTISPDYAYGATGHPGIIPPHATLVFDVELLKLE

For this assay, the target named is FKBP12 (Homo sapiens, UniProt P62942). Description: FKBP12 Binding Assay: inhibition of FKBP rotomase activity (cis-N-succinyl-Ala-Ala-Pro-Phe-p-nitroanilide / chymotrypsin), apparent Ki. The assay is classed as biochemical. To be noted: Table 2, formula II', compound 0.1 nM-10 μM. The text has this:
Preferably, the assay measures inhibition of FKBP12 rotomase activity. Such an assay has also been described by M. W. Harding et al., supra and by J. J. Siekierka et al., supra. In this assay the isomerization of an artificial substrate--N-succinyl-Ala-Ala-Pro-Phe-p-nitroanilide--is followed spectrophotometrically. The assay includes the cis form of the substrate, FKBP12, the inhibitor and chymotrypsin. Chymotrypsin is able to cleave p-nitroanilide from the trans form of the substrate, but not the cis form. Release of p-nitroanilide is measured.
In this assay various quantities of FKBP12 binding compound (0.1 nM-10 μM) were added to cis-N-succinyl-Ala-Ala-Pro-Phe-p-nitroanilide in the presence of FKBP12 and chymotrypsin. FKBP12 converts the cis form of the substrate to the trans form. This allows chymotrypsin to cleave p-nitroanilide from the substrate. Release of p-nitroanilide was measured spectrophotometrically.

SMILES strings stand for the structures.

For the molecule `COc1cc(C(=O)C(=O)N2CCCC[C@H]2C(=O)OC(CCCc2ccccc2)CCCc2cccnc2)cc(OC)c1OC` (stereo partly shown) [compound 9], the Ki was 500 pM.
